Results published in PubChem BioAssay AID1508609 (The Scripps Research Institute Molecular Screening Center, 2020).
The entries are a selection whose mix differs from that of the whole data set. Calls of active or inactive are those of the source.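 How the source made its calls: active means mean percent activation across replicates above the confirmation screen cutoff of 4.91%; inactive means the rest.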

Amino acid sequences for entries named in this document (tags omitted). A change or cut given only in a name is not applied to a line headed by its entry.
UniProt Q8TDV0: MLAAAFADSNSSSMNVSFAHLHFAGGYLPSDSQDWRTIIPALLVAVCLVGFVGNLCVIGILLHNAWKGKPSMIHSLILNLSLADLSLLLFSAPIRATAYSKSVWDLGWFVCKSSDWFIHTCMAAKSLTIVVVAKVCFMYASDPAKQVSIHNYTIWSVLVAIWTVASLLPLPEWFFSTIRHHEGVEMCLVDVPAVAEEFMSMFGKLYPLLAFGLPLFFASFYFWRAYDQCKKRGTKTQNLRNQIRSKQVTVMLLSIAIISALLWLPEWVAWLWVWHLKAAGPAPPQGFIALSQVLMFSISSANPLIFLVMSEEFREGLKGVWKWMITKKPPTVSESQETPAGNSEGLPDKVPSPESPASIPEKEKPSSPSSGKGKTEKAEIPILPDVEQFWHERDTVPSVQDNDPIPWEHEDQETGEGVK

Target: G-protein coupled receptor 151 (Homo sapiens) (UniProt Q8TDV0)
Experiment: GPR151 agonism via beta-arrestin recruitment – cell-based, PathHunter beta-arrestin, luminescence, confirmation (AID 1508609)
Settings: GPR151 PathHunter beta-arrestin cells, 90 min, at 11.2 µM, active compounds read high, % of EA-reagent control over plate median

| Compound | activation |
| --- | --- |
| Cc1cc(Br)c(Nc2c([N+](=O)[O-])cc([N+](=O)[O-])c3nonc23)cc1[N+](=O)[O-] | inactive: -0.96% |
| O=C(Nc1cccc(F)c1)N(Cc1cccnc1)C1CCN(CCc2cccs2)CC1 | inactive: -0.38% |
